# Measured values: patent publication US20070059785A1, “Biomarkers in cancer” (SMITHKLINE BEECHAM CORPORATION, priority 2003, published 2007)
# Columns and labels:
# Erk1/2 [1] = assay: Western blot of p-Erk1/2 in HN5 cells
# Erk1/2 [2] = assay: Western blot of p-Erk1/2 in Hb4a cells; details: 10 μg/ml, 72 h
# Erk1/2 [3] = assay: Western blot of p-Erk1/2 in BT474 cells
substance,measurement,setting,value
Herceptin™: humanized anti-erbB2 monoclonal antibody [reference compound],p-Erk1/2 levels compared with untreated controls,"Erk1/2 [1]; HN5, 10 μg/ml, 72 h",little effect
same,total Erk1/2 steady state protein levels,"Erk1/2 [1]; HN5, 72 h, GW572016 0.5 or 1 μM, Herceptin 10 μg/ml",Neither Herceptin™ nor GW572016 reduced
same,baseline p-Erk levels,Erk1/2 [2],relatively little change
same,p-Erk1/2 levels compared with untreated controls,"Erk1/2 [3]; BT474, 10 μg/ml, 72 h",little effect
same,total Erk1/2 steady state protein levels,"Erk1/2 [3]; BT474, 72 h, GW572016 0.5 or 1 μM, Herceptin 10 μg/ml",Neither Herceptin™ nor GW572016 reduced
